Patent US20240316154A1

Tests used:
[1] = biological target: Membrane human TNFα on MT104 H2 CHO cells (human) (UniProt P01375); assay: cell-based or functional assay
[2] = biological target: Soluble human TNFα (human) (UniProt P01375); assay: cell-based or functional assay
[3] = biological target: Soluble cyno TNFα (cyno) (UniProt P79337); assay: cell-based or functional assay
[4] = biological target: Pig serum albumin (pig) (UniProt P08835); assay: SPR, SA on chip, 1:1 fit, 25 C
[5] = biological target: Cynomolgus monkey serum albumin (cynomolgus monkey) (UniProt A2V9Z4); assay: SPR, SA on chip, 1:1 fit, 25 C
[6] = biological target: Dog serum albumin (dog) (UniProt P49822); assay: SPR, SA on chip, 1:1 fit, 25 C
[7] = biological target: Rat serum albumin (rat) (UniProt P02770); assay: SPR, SA on chip, 1:1 fit, 25 C
[8] = biological target: Human serum albumin (human) (UniProt P02768); assay: SPR, SA on chip, 1:1 fit, 25 C
[9] = biological target: Cow serum albumin (cow) (UniProt P02769); assay: SPR, SA on chip, 1:1 fit, 25 C
[10] = biological target: Mouse serum albumin (mouse) (UniProt P07724); assay: SPR, SA on chip, 1:1 fit, 25 C

With “Control Fab of Example 13 (AdaFab VHCH1 with AdaFab VLCL)” the EC50 (nM)-Geo Mean, Membrane Human TNFα Inhibition [1] was 4.24 nM, the EC50 Geo Mean (µg/mL), L929 cytotoxicity neutralization [1] was 0.201 µg/mL and the EC50 (nM)-Geo Mean, Soluble Human TNFα Inhibition [2] was 0.703 nM. For the same substance, the EC50 Geo Mean (µg/mL), L929 cytotoxicity neutralization [2] was 0.0333 µg/mL, the EC50 (nM)-Geo Mean, Soluble Cyno TNFα Inhibition [3] was 2.17 nM and the EC50 Geo Mean (µg/mL), L929 cytotoxicity neutralization [3] was 0.102 µg/mL.
“VHH-based fusion of Example 9, Fab-VHH fusion (AdaFab VHCH1-(G4Q)5-MC6.1C22.43 with AdaFab VLCL) (bispecific antibody)” showed a Kd [4] of 83 nM, a koff [4] of 0.013 s⁻¹ and a kon [4] of 150000 M⁻¹ s⁻¹. For the same substance, the Kd [5] was 4.3 nM, the koff [5] was 0.00094 s⁻¹ and the kon [5] was 220000 M⁻¹ s⁻¹. For the same substance, the Kd [6] was 15 nM, the koff [6] was 0.0037 s⁻¹ and the kon [6] was 240000 M⁻¹ s⁻¹. The Kd [7] was 33 nM, the koff [7] was 0.0071 s⁻¹ and the kon [7] was 210000 M⁻¹ s⁻¹. The EC50 (nM)-Geo Mean, Membrane Human TNFα Inhibition [1] was 4.64 nM, the EC50 Geo Mean (µg/mL), L929 cytotoxicity neutralization [1] was 0.294 µg/mL and the EC50 (nM)-Geo Mean, Soluble Human TNFα Inhibition [2] was 0.886 nM. For the same substance, the EC50 Geo Mean (µg/mL), L929 cytotoxicity neutralization [2] was 0.0562 µg/mL, the EC50 (nM)-Geo Mean, Soluble Cyno TNFα Inhibition [3] was 2.76 nM and the EC50 Geo Mean (µg/mL), L929 cytotoxicity neutralization [3] was 0.175 µg/mL.
“VHH-based fusion of Example 9, Fab-VHH fusion (AdaFab VHCH1-(G4Q)5-MC6.1C22.43 with AdaFab VLCL) (bispecific antibody; other documents disagree on this pair)” gave a Kd [8] of 1.3 nM, a koff [8] of 0.00028 s⁻¹ and a kon [8] of 210000 M⁻¹ s⁻¹. The Kd [9] was 340 nM, the koff [9] was 0.085 s⁻¹ and the kon [9] was 250000 M⁻¹ s⁻¹. The Kd [10] was 43 nM, the koff [10] was 0.01 s⁻¹ and the kon [10] was 230000 M⁻¹ s⁻¹.
